pEC50: −log10 of the molar value.
Tests used:
interleukin 6 (IL-6) = experiment: Interleukin 6 induction assay in human whole blood; settings: read-out: IL6 Induction (EC50), 37° C. for 20 h, AlphaLISA
human TLR7 = human TLR7 (Homo sapiens (Human), UniProt Q9NYK1); experiment: HEK-Blue TLR7 reporter assay (TLR7 agonist activity); format: cell-based; settings: read-out: TLR7 Agonism (EC50); HEK-Blue TLR7 cells, SEAP reporter, 18 h treatment

The chains behind the UniProt entries cited, without tags or fusion partners. Residues count along the entry.
UniProt Q9NYK1, 27-1049 limits assumed: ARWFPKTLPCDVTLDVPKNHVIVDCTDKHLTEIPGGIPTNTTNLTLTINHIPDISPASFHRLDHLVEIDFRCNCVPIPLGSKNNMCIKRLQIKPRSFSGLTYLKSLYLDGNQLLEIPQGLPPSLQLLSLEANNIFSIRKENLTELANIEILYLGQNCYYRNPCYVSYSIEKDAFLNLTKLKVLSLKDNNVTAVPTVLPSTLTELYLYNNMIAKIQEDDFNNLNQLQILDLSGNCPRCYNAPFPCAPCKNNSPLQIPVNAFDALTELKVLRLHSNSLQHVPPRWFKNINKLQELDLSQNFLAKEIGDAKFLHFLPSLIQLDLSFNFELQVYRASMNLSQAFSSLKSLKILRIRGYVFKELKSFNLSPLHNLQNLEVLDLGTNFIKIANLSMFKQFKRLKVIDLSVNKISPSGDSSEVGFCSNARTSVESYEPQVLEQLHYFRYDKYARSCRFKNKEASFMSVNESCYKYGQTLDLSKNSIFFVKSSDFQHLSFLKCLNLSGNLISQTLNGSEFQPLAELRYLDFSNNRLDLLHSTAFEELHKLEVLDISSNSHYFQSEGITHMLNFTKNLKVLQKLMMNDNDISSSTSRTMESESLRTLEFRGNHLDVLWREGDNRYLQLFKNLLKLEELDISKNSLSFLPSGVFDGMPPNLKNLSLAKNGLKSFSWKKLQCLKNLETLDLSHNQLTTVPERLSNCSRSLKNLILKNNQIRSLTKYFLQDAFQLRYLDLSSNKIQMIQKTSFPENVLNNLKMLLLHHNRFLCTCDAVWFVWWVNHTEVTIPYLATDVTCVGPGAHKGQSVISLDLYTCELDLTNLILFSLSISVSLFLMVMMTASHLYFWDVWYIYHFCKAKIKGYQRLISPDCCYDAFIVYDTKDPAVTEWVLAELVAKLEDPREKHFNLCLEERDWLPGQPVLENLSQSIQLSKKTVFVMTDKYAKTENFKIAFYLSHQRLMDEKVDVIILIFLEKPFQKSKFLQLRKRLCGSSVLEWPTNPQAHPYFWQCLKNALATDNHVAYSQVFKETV

CCCCOc1nc(N)c2nc(O)n(Cc3ccc(Oc4cccc(CNC5CCOCC5)n4)cc3)c2n1
pEC50 (interleukin 6 (IL-6)): 7.68

CCCCOc1nc(N)c2nc(O)n(Cc3ccc(Oc4cccc(CN5CCNCC5)n4)cc3)c2n1
pEC50 (interleukin 6 (IL-6)): 6.63 | pEC50 (human TLR7): 8.10

Reference: patent US10508115B2, “Toll-like receptor 7 (TLR7) agonists having heteroatom-linked aromatic moieties, conjugates thereof, and methods and uses therefor” (BRISTOL-MYERS SQUIBB COMPANY, priority 2017, dated 2019)
